Test results reported in ChEMBL document CHEMBL5034046, “Discovery of Small-Molecule CD33 Pre-mRNA Splicing Modulators” (ACS Med Chem Lett, 2022).

Chains of the proteins cited; added tags and fusions are not shown.
UniProt P35372, whole entry: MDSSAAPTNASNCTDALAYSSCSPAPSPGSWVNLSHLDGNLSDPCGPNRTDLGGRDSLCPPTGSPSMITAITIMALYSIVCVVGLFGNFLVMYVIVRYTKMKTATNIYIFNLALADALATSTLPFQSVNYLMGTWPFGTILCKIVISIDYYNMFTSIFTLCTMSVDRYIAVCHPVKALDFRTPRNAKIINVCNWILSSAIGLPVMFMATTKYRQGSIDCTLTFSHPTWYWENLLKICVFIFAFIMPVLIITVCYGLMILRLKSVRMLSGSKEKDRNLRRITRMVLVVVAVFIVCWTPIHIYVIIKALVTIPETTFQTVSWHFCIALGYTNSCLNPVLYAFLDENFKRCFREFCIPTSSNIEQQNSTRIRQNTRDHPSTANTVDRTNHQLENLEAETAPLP

Biological target: Mu-type opioid receptor (Homo sapiens, UniProt P35372)
Assay: Agonist activity at mu opioid receptor (unknown origin) expressed in cells by beta-arrestin recruitment assay

Cc1cnc2c(-c3ccc(C(=O)N(c4ncccc4C)[C@@H]4CCCNC4)cc3F)cnn2c1
EC50: > 10 µM
